Columns and labels:
[1] = system: R17; assay: R17 inactivation in red blood cells, QM vs chlorambucil (Example 10); type: cell-based, bacteriophage R17; conditions: QM all concentrations; chlorambucil up to 300 μg/ml
[2] = system: red blood cells; assay: Extracellular potassium of treated red blood cells (Example 10); type: cell-based
[3] = system: red blood cells; conditions: 80 μg/ml
[4] = system: red blood cells; conditions: 80 μg/ml, low dose biotin label; untreated 96.2
[5] = Solubility observations of stock solutions
[6] = system: red blood cells; assay: IgG binding to treated red blood cells, FACScan (Example 10); conditions: control 3.43
[7] = system: R17; assay: R17 inactivation by QM as a function of hematocrit (Example 2); conditions: for Log Titer: QM 1.0 μg/ml
[8] = system: R17; assay: Kinetics of R17 inactivation by QM with NAC quench (Example 3)
[9] = system: red blood cells; assay: ATP of QM treated packed red blood cells on storage (Example 11)
[10] = system: red blood cells; assay: 2,3-DPG of QM treated packed red blood cells on storage (Example 11)
[11] = system: red blood cells; assay: IgG binding to QM treated packed red blood cells on storage (Example 11)
[12] = system: R17; assay: R17 phage inactivation by QM in Adsol or DMSO, red blood cells (Example 1); conditions: for Log Titer: 30% Htc
[13] = system: red blood cells; assay: Potassium levels of QM treated packed red blood cells on storage (Example 11)
[14] = system: R17; assay: Loss of QM anti-viral activity on pre-incubation in Adsol; light controls (Example 4); conditions: for Log Titer: dark
[15] = system: R17; assay: R17 inactivation by QM after pre-incubation in Adsol, red blood cells or with Amberlite XAD-16 (Example 5); conditions: for Log Titer: QM-RBC
[16] = under conditions of effective R17 inactivation

COc1ccc2nc3cc(Cl)ccc3c(NC(C)CCCN(CCCl)CCCl)c2c1.Cl.Cl (stereo not shown)
R17 inactivation [1]: completely inactivated
Extracellular Potassium ([2]; 10 μg/ml, day 0): 0.73 mM
Extracellular Potassium ([2]; 10 μg/ml, day 1): 1.65 mM
Extracellular Potassium ([2]; 10 μg/ml, day 2): 2.76 mM
Extracellular Potassium ([2]; 10 μg/ml, day 3): 3.64 mM
Extracellular Potassium ([2]; 10 μg/ml, day 4): 4.26 mM
Extracellular Potassium ([2]; 10 μg/ml, day 6): 5.30 mM
Extracellular Potassium ([2]; 10 μg/ml, day 7): 5.69 mM
Extracellular Potassium ([2]; 30 μg/ml, day 0): 0.76 mM
Extracellular Potassium ([2]; 30 μg/ml, day 1): 1.94 mM
Extracellular Potassium ([2]; 30 μg/ml, day 2): 3.08 mM
Extracellular Potassium ([2]; 30 μg/ml, day 3): 4.00 mM
Extracellular Potassium ([2]; 30 μg/ml, day 4): 4.63 mM
Extracellular Potassium ([2]; 30 μg/ml, day 6): 5.76 mM
Extracellular Potassium ([2]; 30 μg/ml, day 7): 6.15 mM
Extracellular Potassium ([2]; 100 μg/ml, day 0): 0.78 mM
Extracellular Potassium ([2]; 100 μg/ml, day 1): 2.48 mM
Extracellular Potassium ([2]; 100 μg/ml, day 2): 4.05 mM
Extracellular Potassium ([2]; 100 μg/ml, day 3): 5.23 mM
Extracellular Potassium ([2]; 100 μg/ml, day 4): 6.06 mM
Extracellular Potassium ([2]; 100 μg/ml, day 6): 7.50 mM
Extracellular Potassium ([2]; 100 μg/ml, day 7): 8.02 mM
Extracellular Potassium ([2]; 300 μg/ml, day 0): 0.82 mM
Extracellular Potassium ([2]; 300 μg/ml, day 1): 3.61 mM
Extracellular Potassium ([2]; 300 μg/ml, day 2): 5.59 mM
Extracellular Potassium ([2]; 300 μg/ml, day 3): 7.37 mM
Extracellular Potassium ([2]; 300 μg/ml, day 4): 8.32 mM
Extracellular Potassium ([2]; 300 μg/ml, day 6): > 10 mM
Extracellular Potassium ([2]; 300 μg/ml, day 7): 11.20 mM
changes in red blood cell function ([2]; potassium leakage and IgG binding, conditions of Example 10): only induced slight changes in red blood cell function
LOSS PER DAY ([3]; untreated 2.66%): 2.77%
RECOVERY ([3]; untreated 90.3 ± 3.2): 80.8 ± 4.7
% RECOVERY, LOW [4]: 94.6%
solubility observation ([5]; 0.4 mg/ml in Adsol): suspension, not a solution
solubility observation ([5]; 0.6 mg/ml in DMEM/15% FBS): colloidal suspension rather than a solution
solubility observation ([5]; 1.0 mg/ml in 50% Htc red blood cells): contained definite particles
solubility observation ([5]; 1.0 mg/ml stock mixed 20 μl + 180 μl packed red blood cells): appeared clear
solubility observation ([5]; 2.0 mg/ml in ice cold Adsol): suspension
solubility observation ([5]; 2 mg/ml in saline): almost completely dissolved
solubility observation ([5]; 2.9 mg in 0.967 ml Adsol): material remained in suspension
solubility observation ([5]; 3 mg/ml stock, 0.3 mg/ml in 50% Htc red blood cells): evidence of precipitating out of solution
solubility observation ([5]; 2.5, 5.0, 10, or 20 μg/ml in R17-Adsol samples): completely solubilized
Median Fluorescence (IgG binding) ([6]; 10 μg/ml): 5.00
Median Fluorescence (IgG binding) ([6]; 30 μg/ml): 7.77
Median Fluorescence (IgG binding) ([6]; 100 μg/ml): 15.8
Median Fluorescence (IgG binding) ([6]; 300 μg/ml): 48.7
R17 inactivation ([7]; 1.0 μg/ml, Htc 0-30%): inactivates R17 in all of the Htc tested
Log Titer ([7]; Htc 0%, control 8.8): 2.0
Log Titer ([7]; Htc 1%): 4.0
time to complete R17 inactivation [8]: ≤ 2 h
ATP ([9]; 2.5 μg/ml QM, day 1): 0.78 mM
ATP ([9]; 2.5 μg/ml QM, day 9): 0.80 mM
ATP ([9]; 2.5 μg/ml QM, day 16): 0.74 mM
ATP ([9]; 5 μg/ml QM, day 1): 0.78 mM
ATP ([9]; 5 μg/ml QM, day 9): 0.81 mM
ATP ([9]; 5 μg/ml QM, day 16): 0.73 mM
ATP ([9]; 10 μg/ml QM, day 1): 0.76 mM
ATP ([9]; 10 μg/ml QM, day 9): 0.81 mM
ATP ([9]; 10 μg/ml QM, day 16): 0.73 mM
ATP ([9]; 20 μg/ml QM, day 1): 0.78 mM
ATP ([9]; 20 μg/ml QM, day 9): 0.80 mM
ATP ([9]; 20 μg/ml QM, day 16): 0.73 mM
ATP ([9]; 40 μg/ml QM, day 1): 0.76 mM
ATP ([9]; 40 μg/ml QM, day 9): 0.80 mM
ATP ([9]; 40 μg/ml QM, day 16): 0.72 mM
effect on ATP content [9, 16]: no significant effects
2,3-DPG ([10]; 2.5 μg/ml QM, day 1): 2.20
2,3-DPG ([10]; 2.5 μg/ml QM, day 9): 0.88
2,3-DPG ([10]; 2.5 μg/ml QM, day 16): 0.10
2,3-DPG ([10]; 5 μg/ml QM, day 1): 2.35
2,3-DPG ([10]; 5 μg/ml QM, day 9): 0.97
2,3-DPG ([10]; 5 μg/ml QM, day 16): 0.28
2,3-DPG ([10]; 10 μg/ml QM, day 1): 2.06
2,3-DPG ([10]; 10 μg/ml QM, day 9): 1.11
2,3-DPG ([10]; 10 μg/ml QM, day 16): 0.34
2,3-DPG ([10]; 20 μg/ml QM, day 1): 2.63
2,3-DPG ([10]; 20 μg/ml QM, day 9): 1.43
2,3-DPG ([10]; 20 μg/ml QM, day 16): 1.36
2,3-DPG ([10]; 40 μg/ml QM, day 1): 2.09
2,3-DPG ([10]; 40 μg/ml QM, day 9): 1.04
2,3-DPG ([10]; 40 μg/ml QM, day 16): 0.11
effect on 2,3-DPG content [10, 16]: no significant effects
mean FL ([11]; 2.5 μg/ml QM, day 1): 4.77
median FL ([11]; 2.5 μg/ml QM, day 1): 4.45
mean FL ([11]; 2.5 μg/ml QM, day 9): 4.77
median FL ([11]; 2.5 μg/ml QM, day 9): 4.45
mean FL ([11]; 2.5 μg/ml QM, day 16): 4.77
median FL ([11]; 2.5 μg/ml QM, day 16): 4.45
mean FL ([11]; 5 μg/ml QM, day 1): 4.79
median FL ([11]; 5 μg/ml QM, day 1): 4.45
mean FL ([11]; 5 μg/ml QM, day 9): 4.79
median FL ([11]; 5 μg/ml QM, day 9): 4.45
mean FL ([11]; 5 μg/ml QM, day 16): 4.79
median FL ([11]; 5 μg/ml QM, day 16): 4.45
mean FL ([11]; 10 μg/ml QM, day 1): 4.96
median FL ([11]; 10 μg/ml QM, day 1): 4.7
mean FL ([11]; 10 μg/ml QM, day 9): 4.96
median FL ([11]; 10 μg/ml QM, day 9): 4.7
mean FL ([11]; 10 μg/ml QM, day 16): 4.96
median FL ([11]; 10 μg/ml QM, day 16): 4.7
mean FL ([11]; 20 μg/ml QM, day 1): 5.73
median FL ([11]; 20 μg/ml QM, day 1): 5.19
mean FL ([11]; 20 μg/ml QM, day 9): 5.73
median FL ([11]; 20 μg/ml QM, day 9): 5.19
mean FL ([11]; 20 μg/ml QM, day 16): 5.73
median FL ([11]; 20 μg/ml QM, day 16): 5.19
mean FL ([11]; 40 μg/ml QM, day 1): 6.31
median FL ([11]; 40 μg/ml QM, day 1): 6.04
mean FL ([11]; 40 μg/ml QM, day 9): 6.31
median FL ([11]; 40 μg/ml QM, day 9): 6.04
mean FL ([11]; 40 μg/ml QM, day 16): 6.31
median FL ([11]; 40 μg/ml QM, day 16): 6.04
effect on IgG binding to RBCs [11, 16]: only modest effects on IgG binding to RBCs
Log Titer ([12]; QM 10 μg/ml, solvent Adsol): 1.0
Log Titer ([12]; QM 20 μg/ml, solvent DMSO): 1.0
R17 inactivation ([12]; above 10 μg/ml, to the limit of detection of assay): complete inactivation is achieved
R17 inactivation ([12]; concentrations as low as 2.5 μg/ml): effective in inactivating R17
K^+ ([13]; 2.5 μg/ml QM, day 1): 7.42
K^+ ([13]; 2.5 μg/ml QM, day 2): 7.42
K^+ ([13]; 2.5 μg/ml QM, day 7): 12.90
K^+ ([13]; 2.5 μg/ml QM, day 8): 13.64
K^+ ([13]; 2.5 μg/ml QM, day 9): 15.86
K^+ ([13]; 2.5 μg/ml QM, day 16): 31.76
K^+ ([13]; 5 μg/ml QM, day 1): 7.24
K^+ ([13]; 5 μg/ml QM, day 2): 7.24
K^+ ([13]; 5 μg/ml QM, day 7): 13.28
K^+ ([13]; 5 μg/ml QM, day 8): 14.82
K^+ ([13]; 5 μg/ml QM, day 9): 15.18
K^+ ([13]; 5 μg/ml QM, day 16): 32.96
K^+ ([13]; 10 μg/ml QM, day 1): 7.24
K^+ ([13]; 10 μg/ml QM, day 2): 7.24
K^+ ([13]; 10 μg/ml QM, day 7): 13.06
K^+ ([13]; 10 μg/ml QM, day 8): 15.16
K^+ ([13]; 10 μg/ml QM, day 9): 14.68
K^+ ([13]; 10 μg/ml QM, day 16): 31.64
K^+ ([13]; 20 μg/ml QM, day 1): 7.00
K^+ ([13]; 20 μg/ml QM, day 2): 7.00
K^+ ([13]; 20 μg/ml QM, day 7): 12.90
K^+ ([13]; 20 μg/ml QM, day 8): 15.38
K^+ ([13]; 20 μg/ml QM, day 9): 14.44
K^+ ([13]; 20 μg/ml QM, day 16): 31.36
K^+ ([13]; 40 μg/ml QM, day 1): 6.95
K^+ ([13]; 40 μg/ml QM, day 2): 6.95
K^+ ([13]; 40 μg/ml QM, day 7): 12.88
K^+ ([13]; 40 μg/ml QM, day 8): 12.44
K^+ ([13]; 40 μg/ml QM, day 9): 15.44
K^+ ([13]; 40 μg/ml QM, day 16): 30.92
effect on potassium-leakage [13, 16]: no significant effects
light-dependent kill of R17 [14]: no light-dependent kill
QM activity after pre-incubation in Adsol ([14]; 4 hour pre-incubation): not diminished
Log Titer ([14]; QM 1 hour pre-incubation): 4.0
Log Titer ([14]; QM 4 hour pre-incubation): 4.0
QM anti-viral activity upon pre-incubation in Adsol ([14]; previous results, not shown): did not decrease rapidly
time of removal of QM from blood by Amberlite XAD-16 [15]: ≤ 1 h
QM anti-viral activity after pre-incubation with red blood cells ([15]; 4 hour pre-incubation): removed
Log Titer ([15]; 30 min): 5.0
Log Titer ([15]; 120 min): 8.0

Source: US6177441A, “Treating red blood cell solutions with anti-viral agents” (Cerus Corporation, priority 1998, dated 2001)
